From article PMC10077450 (ACS Omega, 2023) come the findings set out here.

The chains behind the UniProt entries cited, without tags or fusion partners. Residues count along the entry.
UniProt P06276, 29-602, species assumed: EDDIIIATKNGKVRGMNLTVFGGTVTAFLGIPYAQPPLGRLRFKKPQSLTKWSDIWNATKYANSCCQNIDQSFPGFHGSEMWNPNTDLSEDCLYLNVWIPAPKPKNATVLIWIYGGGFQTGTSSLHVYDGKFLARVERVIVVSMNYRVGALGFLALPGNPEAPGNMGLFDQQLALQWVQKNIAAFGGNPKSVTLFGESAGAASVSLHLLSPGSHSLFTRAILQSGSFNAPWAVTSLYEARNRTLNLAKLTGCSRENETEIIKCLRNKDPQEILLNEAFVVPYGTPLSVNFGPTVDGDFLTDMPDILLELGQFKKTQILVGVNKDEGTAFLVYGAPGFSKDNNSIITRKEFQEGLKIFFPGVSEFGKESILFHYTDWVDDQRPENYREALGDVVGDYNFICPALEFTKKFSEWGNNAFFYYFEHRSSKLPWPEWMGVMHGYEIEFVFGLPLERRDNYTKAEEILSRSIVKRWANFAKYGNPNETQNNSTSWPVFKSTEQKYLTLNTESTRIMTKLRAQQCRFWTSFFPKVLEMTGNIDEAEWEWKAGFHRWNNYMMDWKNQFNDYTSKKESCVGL

The assay addresses butyryl cholinesterase (BChE) (Homo sapiens, UniProt P06276). As to the kind of experiment: butyryl cholinesterase inhibition assay. The class given is biochemical. Particulars: mean ± SEM, triplicate.

Marks after values point to notes of the source that are not given here.

As for `CNC(=O)Oc1ccc2c(c1)[C@]1(C)CCN(C)[C@@H]1N2C` [eserine, reference compound], the “BChE inhibition (%) at 0.5 mM” value is 82.82±1.09^b %.
